Data on 2 compounds can be found in paper PMC4151520 (Journal of medicinal chemistry, 2011).

By UniProt entry, the sequences of proteins in these tests, tags left out. Residues count along the entry.
UniProt Q13285, 222-459 limits assumed: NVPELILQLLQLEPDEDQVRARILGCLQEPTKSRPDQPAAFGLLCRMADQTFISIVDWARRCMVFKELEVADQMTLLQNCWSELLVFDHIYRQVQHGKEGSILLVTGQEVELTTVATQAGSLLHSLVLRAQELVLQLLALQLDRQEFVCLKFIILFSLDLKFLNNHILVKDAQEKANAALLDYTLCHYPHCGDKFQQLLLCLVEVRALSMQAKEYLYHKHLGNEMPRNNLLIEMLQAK

The target in data set [1] is human SF-1 (Homo sapiens, UniProt Q13285). To be noted: plateau level, normalized to 24-exo.
The conditions of data set [2]: room temperature, 2 weeks.

Structures are written as SMILES.

Turning to `C=C(c1ccccc1)[C@@]12CC[C@H](O)[C@@H]1CC(CCCCCC)=C2c1ccccc1` (racemic) [Compound 24-endo, rac-(1R,5R,6S)-3-Hexyl-6-hydroxy-2-phenyl-1-(phenylvinyl)-bicyclo[3.3.0]oct-2-ene], the “RE (relative efficacy of peptide recruitment) SF-1” value in data set [1] is recorded as 0.77. In addition, the “stability in CDCl3 in the presence of daylight” value in data set [2] is reported as “stable”. Regarding `C=C(c1ccccc1)[C@@]12CC[C@@H](O)[C@@H]1CC(CCCCCC)=C2c1ccccc1` (racemic) [Compound 24-exo, rac-(1R,5R,6R)-3-Hexyl-6-hydroxy-2-phenyl-1-(phenylvinyl)-bicyclo[3.3.0]oct-2-ene], the “stability in CDCl3 in the presence of daylight” value in data set [2] is “stable”.
